# Ab-14 light chain CDR variants: yeast mating affinities

All variants were tested on one target, the spike HR2 peptide PDVDLGDISGINAS (SARS-CoV-2).

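Phage display of a naive human antibody library on the peptide gave the parent. This is the validation round: designs drawn from the data on random variants, tested in the same kind of assay. Group labels follow the data file (En: ensemble of fine-tuned language models; GP: Gaussian process model; HC: hill climbing; Gen: genetic algorithm; Gibbs: Gibbs sampling; a sequence that several methods proposed may carry one label only). The scFvs were displayed on barcoded MATa yeast, the peptide on MATalpha yeast. Binding brings cells together so that they mate, and sequencing counts the barcode pairs among the diploids. A regression on co-assayed BCL2-family reference pairs converts the normalised counts of each replicate to an apparent Kd. There are six technical replicates.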

The variants keep the heavy chain, the linker and the frameworks of Ab-14 (scFv order VH, the linker GGGGSGGGGSGGGGS, VL).
VH: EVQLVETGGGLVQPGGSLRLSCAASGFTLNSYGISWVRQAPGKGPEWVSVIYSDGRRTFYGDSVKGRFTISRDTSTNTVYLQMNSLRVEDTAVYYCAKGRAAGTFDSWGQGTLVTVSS
VL: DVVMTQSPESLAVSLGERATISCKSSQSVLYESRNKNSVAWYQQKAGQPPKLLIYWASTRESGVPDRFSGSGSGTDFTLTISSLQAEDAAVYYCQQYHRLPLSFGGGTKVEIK

The parent's light chain CDRs are KSSQSVLYESRNKNSVA, WASTRES, QQYHRLPLS; each variant's own CDRs replace them letter for letter.
This list holds designs with more than six substitutions.
Values are apparent Kd, the geometric mean of the replicates that gave a signal; lower means stronger binding.
An entry "nd" has no value in the source: the pair was not observed among the diploids in any replicate. This suggests poor binding but is not conclusive.
The authors' rule: three or more of the six replicates give a measured affinity, fewer mean a poor binder.

For RIQMTMLEGRMAWSNIA | DNEESYR | QQYVRLPLY [En_Gibbs], the assay gave nd (0 of 6 replicates). The variant MISDLTMYGSRSKNSVA | DLSTRGS | QQYHRLPLS [En_HC] showed 1.6 nM (6 of 6 replicates). For TISQSFMMENQFKNSVA | QASTRES | QCYDRLPLS [En_HC], the assay gave 61 nM (6 of 6 replicates). The variant NLSQGDMYHFNTRSAVA | NTTMRDF | QQYNRLPLD [En_Gibbs] gave 17 nM (6 of 6 replicates). The variant KWQGSWLYSSRNKNSVA | EGSTRES | QQYHRLPLS [GP_Gibbs] gave 6.9 nM (6 of 6 replicates).

With KLTMITGTEKVIGNNVA | EMETREN | QQYNRLPLS [En_Gen] the result was 2.7 nM (6 of 6 replicates). For KFQQSVGYQTRNKNSVA | EASQRES | QQYHRLPLS [GP_Gibbs], the assay gave 3.7 nM (6 of 6 replicates). With IMTGIIEEGSNNKRNIA | ENKERFQ | QQYWQLPLS [En_Gibbs] the result was 7.4 nM (6 of 6 replicates). For SLELFEYQIMKDLNNIA | NTNTRVN | QQYMRLPFM [En_Gibbs], the assay gave 1.9 nM (6 of 6 replicates). The variant KQSQSQLYEDGNGNSVA | NASVRED | QQYHRLPLS [GP_Gibbs] showed 23 nM (6 of 6 replicates).

The variant IVSQLMLWGYHASNSIA | EAQTRLN | QQYDRLPLI [En_Gen] gave 580 nM (1 of 6 replicates). The variant KLSMITGHLSTAKNNVA | EMETREN | QQYNRLPLA [En_Gen] showed nd (0 of 6 replicates). For IIYDSVLTLSRNKNSVA | DNSTRES | QQYDRLPLS [En_HC], the assay gave 20 nM (6 of 6 replicates). With KITGTMRFEQKASNNIA | EVTQRSK | QQYYRLPLS [En_Gen] the result was 29 nM (1 of 6 replicates). The variant KYQQSELTESRNKNSVA | NASTRES | QDYHQLPLS [GP_Gibbs] gave 990 pM (6 of 6 replicates).

With RLRELNFESGNARNNIA | DAHIHEV | QQYAWLPLC [En_Gibbs] the result was 22 nM (6 of 6 replicates). For KLRQSTYIESFNKNNVA | EMSTRES | QSYDRLPLS [En_HC], the assay gave 6.6 nM (6 of 6 replicates). For KISQLVNFEGKNINSVA | QMSTRES | QQYDRLPLS [En_HC], the assay gave 11 nM (6 of 6 replicates). The variant KISQMARVGSTHGNSIA | EEATRCD | QQYHRLPLA [En_Gen] gave 1.8 nM (6 of 6 replicates). For KMKQSVDGLDRNWNSVA | QASTREM | QQYHRLPLS [GP_Gibbs], the assay gave 900 pM (6 of 6 replicates).

With KCSQNVLIMGRNKNNVA | EMTTREE | QQYDRLPLS [En_HC] the result was 950 pM (6 of 6 replicates). For KLQMQKLQWSRNKNSVA | EASTRES | QQYHRLPLS [GP_Gibbs], the assay gave 3.0 nM (6 of 6 replicates). With NLSMELEDMGVKDHSIA | EEELPEY | QQYMRLPLM [En_Gibbs] the result was 43 nM (6 of 6 replicates). The variant MISQSFLYGSRAYNSVA | QTSTRES | QQYDRLPLS [En_HC] gave 5.8 nM (6 of 6 replicates). The variant HLGLATMLESSVRNSVA | NNSTREE | QQYDRLPLS [En_Gen] showed 1.5 nM (6 of 6 replicates).

The variant KVSDMMGFLSRNRNSVA | DNSTRGS | QQYHRLPLS [En_HC] showed 5.0 nM (6 of 6 replicates). The variant HITYGMMVVGRHSKSIA | QAETRAK | QQYDRLPLA [En_Gen] showed 16 nM (6 of 6 replicates). For KLSEMAHFESRKKNSVA | ENSTRES | QQYDHLPLS [En_HC], the assay gave 27 nM (6 of 6 replicates). For KFSQMANTFSVSMNAVA | EMSTREN | QQYNRLPLA [En_Gen], the assay gave 1.4 nM (3 of 6 replicates). The variant TISQSANQESHNKNSVA | DLSVRGS | QQYHRLPLS [En_HC] showed 5.0 nM (6 of 6 replicates).

The variant KISMLYNYANTNKNSIA | EMTTRES | QHYHRLPLS [En_HC] showed 5.1 nM (6 of 6 replicates). With KITQILFPYGNSWHSVA | NANTLLA | QQYYMLPLM [En_Gibbs] the result was 84 nM (1 of 6 replicates). With KISQSYLGLSRNVNAVA | NASTRES | QQYHRLPLS [GP_Gibbs] the result was 2.5 nM (6 of 6 replicates). For QIYQAMHTLSQHKDNVA | DVNERGS | QQYFRLPLS [En_Gen], the assay gave 1.9 nM (6 of 6 replicates). With KLYESVGTMSHNKQSIA | DMERRED | QQYHRLPLS [En_HC] the result was 640 pM (6 of 6 replicates).

The variant ILSQMMLTAGNKHSSVA | QANNRQD | QQYHRLPLS [En_HC] gave 64 nM (6 of 6 replicates). The variant TISQMTSLFSQSINNVA | EVSTREP | QQYDRLPLI [En_Gen] showed 2.0 nM (6 of 6 replicates). With KVSMSWLMESRNWNSVA | NASLRES | QDYHRLPLS [GP_Gibbs] the result was 1.1 nM (6 of 6 replicates). For KVSQSEEYESRMKNSVA | NASYREQ | QQYHRLPLS [GP_Gibbs], the assay gave 1.5 nM (6 of 6 replicates).

Excerpt, the first 2 entries:

The variant RIQMTMLEGRMAWSNIA | DNEESYR | QQYVRLPLY [En_Gibbs] showed nd (0 of 6 replicates).
The variant MISDLTMYGSRSKNSVA | DLSTRGS | QQYHRLPLS [En_HC] showed 1.6 nM (6 of 6 replicates).

The range of this assay differs from that of the first round, and the authors advise against merging the two.
Three control strains display no target. For all light chain designs, 4% of the pairings with them gave a signal, with a median of 430 nM and one signal in twenty below 38 nM, so weak values seen in few replicates may be background.
The parent sequence was in this pool as ten entries: three were never detected, three once, and four in most replicates, with averages from 2.2 nM to 240 nM.

From the AlphaSeq antibody data of Li et al. 2023 (doi:10.1038/s41467-023-39022-2), copy in the FLAb collection.